Laboratory results published in the DeepSol protein solubility set.

Test: soluble on expression in E. coli; label from the status in PepcDB or PDB records

KSKLPKPVQDLIKMIFDVESMKKAMVEYEIDLQKMPLGKLSKRQIQAAYSILSEVQQAVSQGSSDSQILDLSNRFYTLIPHDFGMKKPPLLNNADSVQAKVEMLDNLLDIEVAYSLLRGGSDDSSKDPIDVNYEKLKTDIKVVDRDSEEAEIIRKYVKNTHATTHNAYDLEVIDIFKIEREGECQRYKPFKQLHNRRLLWHGSRTTNFAGILSQGLRIAPPEAPVTGYMFGKGIYFADMVSKSANYCHTSQGDPIGLILLGEVALGNMYELKHASHISKLPKGKHSVKGLGKTTPDPSANISLDGVDVPLGTGISSGVNDTSLLYNEYIVYDIAQVNLKYLLKLKFNFKT
soluble on expression in E. coli: soluble
